Laboratory results: patent US20150051212A1, “Compositions And Methods For Inhibiting Drusen” (Regenerative Research Foundation, priority 2012, published 2015)

System: RPESC-derived RPE cells
Test: Restored resistance: transepithelial resistance of RPESC-derived RPE after oxidative stress
Type: cell-based, human
Conditions: oxidative stress by TBHP; FIG. 3
Source text: The ability of a test substance to restore transepithelial resistance may also be determined in the RPE cell-based assay. RPE cells are a tight junctioned epithelia and compromised epithelial integrity is a hallmark of RPE-associated diseases, such as, e.g., dry AMD.
Restored resistance. Healthy RPE form tight functioned epithelia layers with high electrical resistance. Compromising the integrity of these layers decreases the resistance and is indicative of a diseased state, such as dry or other forms of AMD.
Preferably, each well of primary human RPE cells has a resistance greater than 200 Ω·cm^2 before beginning the experiment. Resistance of RPE treated with a test compound is measured again, after oxidative stress, and compared to the resistance in untreated RPE subjected to the same oxidative stress procedure.

## Ponatinib
  effect on decrease in transepithelial resistance after oxidative stress: attenuate the decrease in transepithelial resistance
